# Results: US4027039A (priority 1975, dated 1977)
# How the values were obtained:
# Herpes virus [1] = experiment: Herpes virus in chicken eggs, single dose 24 hours pre-infection; assay type: in vivo, chick embryo; conditions: 20 μg
# Influenza PR 8 virus [2] = experiment: Influenza PR 8 in mice, oral; schedule by table; late read day 6 (Table 37), 7 (33, 36), 8 (32, 35, 47), 10 (38); control fraction 18/20 (Table 32), 19/20 (Table 35), else 100%; assay type: in vivo, mouse; conditions: for No. animals surviving after 6-10 days: thiosemicarbazone
# Influenza PR 8 virus [3] = experiment: Influenza PR 8 in mice, subcutaneous; late read day 6 (Table 37), 8 (Table 47); assay type: in vivo, mouse
# Influenza PR 8 virus [4] = experiment: Influenza PR 8 in mice, intravenous (Table 31); assay type: in vivo, mouse
# Description: Dose Schedule: No pre-infection; +30, +72 post-infection.
# Route of Administration: Intravenous.
# Influenza PR 8 virus [5] = experiment: Influenza PR 8 in mice, drug in drinking water (Table 34); assay type: in vivo, mouse
# Herpes virus [6] = conditions: for No. animals surviving after 6-9 days: total dose .05 μg
# [7] = tested on: Influenza B Massachusetts virus; experiment: Influenza B Mass. in mice, oral; late read day 5 (Table 39), 7 (Table 40), 11 (Tables 61, 65); control fraction 16/20 (Table 61), else 100%; assay type: in vivo, mouse
# Description: A portion of a commercially available sample of amantadine was recrystallized from isopropanol. The activity of the material against Influenza B Mass. was tested for the sample as obtained, the recrystallized portion, and the mother liquor obtained from recrystallizing the portion.
# [8] = tested on: Influenza, Ann Arbor virus; experiment: Influenza Ann Arbor in mice, oral; schedule by table; late read day 5 (Tables 15, 25, 29, 30), 6 (18, 20, 22, 23, 26, 27, 28, 54), 7 (14, 19, 21, 24, 53, 56), 8 (16, 17, 51), 9 (11, 55); assay type: in vivo, mouse
compound,measurement,setting,value
"CCC(C)=NNC(N)=S [2-Butanone, thiosemicarbazone, 2-butanone, thiosemicarbazone]",No. hatched,Herpes virus [1],2
same,No. animals surviving when 100% (or given fraction) of controls are dead,Influenza PR 8 virus [2]; total dose .000005 μg,3
same,No. animals surviving after 6-10 days,Influenza PR 8 virus [2]; total dose .000005 μg,3
same,No. animals surviving when 100% (or given fraction) of controls are dead,"Influenza PR 8 virus [2]; total dose .00005 μg, listed as 2-butanone thiosemicarbazone",3
same,No. animals surviving after 6-10 days,Influenza PR 8 virus [2]; total dose .0005 μg,3
same,No. animals surviving after 6-8 days,Influenza PR 8 virus [3]; total dose .00005 μg,3
same,No. animals surviving after 6-8 days,Influenza PR 8 virus [3]; total dose .005 μg,3
same,No. animals surviving when 18/20 of controls are dead,Influenza PR 8 virus [4]; total dose 2 μg,3
same,Survivors,Influenza PR 8 virus [4]; total dose 2 μg,3
same,No. animals surviving when 18/20 of controls are dead,Influenza PR 8 virus [4]; total dose 20 μg,3
same,Survivors,Influenza PR 8 virus [4]; total dose 20 μg,3
same,Survivors,"Influenza PR 8 virus [5]; 5 Mg/ml in water, 24 h pre and 24 h post",3
same,Survivors,"Influenza PR 8 virus [5]; 24 h post-infection only, second of two printed columns",3
same,Survivors,"Influenza PR 8 virus [5]; .05 Mg/ml in water, 24 h pre and 24 h post",3
same,Survivors,Herpes virus [6]; total dose .00005 μg,3
same,No. animals surviving when 100% (or given fraction) of controls are dead,Herpes virus [6]; total dose .005 μg,3
same,No. animals surviving after 6-9 days,Herpes virus [6],3
"CN1C(=O)/C(=N\NC(N)=S)c2ccccc21 [Methisazone, 1-methylindole-2,3-dione, 3-thiosemicarbazone, reference compound]",No. animals surviving after 6-9 days,Herpes virus [6],2
"N=C(N)NN [aminoguanidine, bicarbonate]",No. animals surviving after 7 days,[7]; total dose 40 pg,2
same,No. animals surviving after 7 days,[7]; total dose 400 pg,4
same,No. animals surviving after 7 days,[7]; total dose 4 ng,4
same,No. animals surviving after 7 days,[7]; total dose 400 ng,3
same,No. animals surviving after 7 days,[7]; total dose 4 μg,3
"Cc1ccccc1NC(=S)NN=C1CCCC1 [cyclopentanone, 3-thio-4-o-tolyl-semicarbazone]",Survivors,[8]; total dose 30 ng,1
same,No. animals surviving after 5-7 days,[8]; total dose 30 μg,5
NNC(N)=O [semicarbazide],activity in words,"Herpes virus [6]; mouse, in vivo",very pronounced protection
